Numbering of substitutions follows the chain as printed.
B1: SPK002M A1 antibody (antibody, human IgG1, kappa, V domains shown)
VH: EVQLVESGGGLIQPGGSLRLSCAASTITVTSNYMSWVRQAPGKGLEWVSVIYPGGSTFYADSVKGRFTISADNSKNTLYLQMNSLRAEDTAVYYCARDLVVYGMDVWGQGTTVTVSS
VL: EIVLTQSPGTLSLSPGERATLSCRASQGFSSSYLAWYQQKPGQAPRLLIYGASSRATGIPGRFSGSGSGTDFTLTISRLEPEDFAVYYCQQGVTFGGGTKVEIKR
B2: SPK002M B1 antibody (antibody, human IgG1, kappa, V domains shown)
VH: B1 VH with T26I, A71Y
VL: B1 VL with G28S, F29V, S31D, V86I, Q91Y
B3: SPK002M A2 antibody (antibody, human IgG1, kappa, V domains shown)
VH: B1 VH
VL: B1 VL with F29V
B4: SPK002M A6 antibody (antibody, human IgG1, kappa, V domains shown)
VH: B1 VH with T26G
VL: B1 VL with G28S, F29V, V86I
B5: SPK002M B2 antibody (antibody, human IgG1, kappa, V domains shown)
VH: B1 VH with T26I, A71Y
VL: B1 VL with G28S, F29V, V86I
B6: SPK002M A5 antibody (antibody, human IgG1, kappa, V domains shown)
VH: B1 VH with T26V
VL: B1 VL with G28S, F29V, V86I
B7: SPK002 antibody (parental version Cv2.3194 described in WO 2022/228827) (antibody, V domains shown)
VH: EVQLVESGGGLIQPGGSLRLSCAASGITVTSNYMSWVRQAPGKGLEWVSVIYPGGSTFYADSVKGRFTISRDNSKNTLYLQMNSLRAEDTAVYYCARDLVVYGMDVWGQGTTVTVS
VL: EIVLTQSPGTLSLSPGERATLSCRASQSVSSSYLAWYQQKPGQAPRLLIYGASSRATGIPGRFSGSGSGTDFTLTISRLEPEDFAIYYCQQGVTFGGGTKVEIK
notes: also called SKP002; parent antibody

Chains of the proteins cited; added tags and fusions are not shown.
UniProt P12956, whole entry, chain 1 of 2: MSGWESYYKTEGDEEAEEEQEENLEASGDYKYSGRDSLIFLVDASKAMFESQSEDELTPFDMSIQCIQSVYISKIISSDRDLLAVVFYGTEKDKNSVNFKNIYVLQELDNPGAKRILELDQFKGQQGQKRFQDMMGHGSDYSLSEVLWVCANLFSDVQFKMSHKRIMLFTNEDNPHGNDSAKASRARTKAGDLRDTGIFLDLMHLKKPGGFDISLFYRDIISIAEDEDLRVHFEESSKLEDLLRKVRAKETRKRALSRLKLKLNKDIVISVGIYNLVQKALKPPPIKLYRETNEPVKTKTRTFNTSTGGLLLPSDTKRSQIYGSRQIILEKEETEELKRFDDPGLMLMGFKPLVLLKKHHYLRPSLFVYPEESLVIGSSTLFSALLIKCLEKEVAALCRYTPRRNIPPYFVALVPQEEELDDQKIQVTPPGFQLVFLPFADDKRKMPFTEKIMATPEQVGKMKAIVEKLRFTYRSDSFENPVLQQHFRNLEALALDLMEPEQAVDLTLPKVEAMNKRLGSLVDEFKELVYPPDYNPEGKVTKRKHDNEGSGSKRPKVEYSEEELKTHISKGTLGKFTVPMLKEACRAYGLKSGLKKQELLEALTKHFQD
Ku, UniProt P13010, whole entry, chain 2 of 2: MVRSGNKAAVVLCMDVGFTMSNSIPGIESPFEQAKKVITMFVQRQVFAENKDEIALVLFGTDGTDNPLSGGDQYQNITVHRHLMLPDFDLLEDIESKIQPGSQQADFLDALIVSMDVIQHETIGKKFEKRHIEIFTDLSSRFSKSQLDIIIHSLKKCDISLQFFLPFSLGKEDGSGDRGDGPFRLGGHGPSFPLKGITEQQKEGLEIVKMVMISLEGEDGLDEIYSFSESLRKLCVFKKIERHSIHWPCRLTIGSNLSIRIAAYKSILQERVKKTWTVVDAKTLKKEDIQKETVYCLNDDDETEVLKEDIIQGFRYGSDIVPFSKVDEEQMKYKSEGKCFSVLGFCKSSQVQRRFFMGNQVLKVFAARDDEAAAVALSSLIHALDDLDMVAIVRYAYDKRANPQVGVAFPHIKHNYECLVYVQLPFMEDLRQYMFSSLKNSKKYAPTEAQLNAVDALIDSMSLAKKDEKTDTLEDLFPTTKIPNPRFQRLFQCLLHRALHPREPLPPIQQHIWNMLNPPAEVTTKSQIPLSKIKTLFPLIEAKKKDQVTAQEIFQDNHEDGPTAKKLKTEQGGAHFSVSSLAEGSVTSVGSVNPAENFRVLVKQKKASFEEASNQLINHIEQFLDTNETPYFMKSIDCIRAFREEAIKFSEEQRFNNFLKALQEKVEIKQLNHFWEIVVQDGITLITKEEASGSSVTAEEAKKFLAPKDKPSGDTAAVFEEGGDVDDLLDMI

These binders were tested against T1, Ku (UniProt P12956 1-609; P13010 1-732) (assay: Milliplex autoantigen bead assay (FIG. 2)).
B1: no binding (tested: 25 µg/ml).
B2: no binding (tested: 25 µg/ml).
B3: no binding (tested: 25 µg/ml).
B4: no binding (tested: 25 µg/ml).
B5: no binding (tested: 25 µg/ml).
B6: no binding (tested: 25 µg/ml).

What follows are binders tested against T1, Ku (assay: Milliplex autoantigen bead assay).
B7: no binding (tested: 25 µg/ml).
